# Reference: US10160812B2, “Bispecific HER2 antibodies” (MedImmune, LLC, priority 2014, dated 2018)
# How the values were obtained:
# [1] = tested on: NCI-N87 cells with acquired resistance to T-DM1; details: T-DM1 resistant NCI-N87 cell line, FIG. 26A right panel
# Experimental: (§1) A panel of human cancer cell lines expressing various levels of HER2 was used to evaluate the cytotoxic activity of bispecific ADC (Table 5 in Example 1). Briefly, cells were harvested, resuspended, and plated in serum-containing culture media at a density of 5,000 to 20,000 per well (depending on the growth kinetics of each cell line) of 96-well plates in a volume of 100 μL. A 2× concentration of each dose of antibody or ADC to be tested was prepared by diluting the test articles in culture medium. One hundred microliters of each test article was added to cells in triplicate such that the final dose curve ranged from 5 nM down to 0.08 pM in a stepwise 1:4 serial dilution series. The treated cells were incubated at 37° C./5% CO2 for 3 to 4 days, depending on the growth kinetics of each particular cell line. Cell viability was determined using Cell Titer Glo according to manufacturer's instructions. Data are analyzed by the GraphPad Prism software and presented as percent growth inhibition relative to the untreated control. EC50 values were determined using Sigmoidal non-linear regression analysis with GraphPad Prism software and were summarized in Table 6.
# [2] = tested on: NCI-N87; details: parental NCI-N87 cells, FIG. 26A left panel
# Experimental: as §1
# [3] = tested on: JIMT-1; assay: In vitro cytotoxic activity (Cell Titer Glo); type: cell-based, human; details: JIMT-1 cells, FIG. 18
# [4] = tested on: ZR-75-1; assay: In vitro cytotoxic activity (Cell Titer Glo); type: cell-based, human; details: ZR-75-1 cells, FIG. 19
substance,measurement,setting,value
T-DM1 [reference compound],cytotoxic activity (in words),[1],lost the activity
same,cytotoxic activity (in words),[2],active
same,cytotoxic activity (in words),[3],no activity
same,cytotoxic activity (in words),[4],no or limited cytotoxic activity
